Assay results published in PubChem BioAssay (NCI).
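Values below derive from 48-hour exposures of cells grown in 96-well plates, with endpoints linearly interpolated between the two concentrations bracketing the appropriate inhibition level. At the GI50, growth is halved. TGI is the concentration that stops growth completely.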

What was measured:
Test in all cases: growth of human tumour cells (NCI), 48 h
[1] = test system: 786-0 renal
[2] = test system: A498 renal
[3] = test system: A549 NSCLC
[4] = test system: ACHN renal
[5] = test system: BT-549 breast
[6] = test system: CAKI-1 renal
[7] = test system: CCRF-CEM leukemia
[8] = test system: COLO 205 colon
[9] = test system: DU-145 prostate
[10] = test system: HCC-2998 colon
[11] = test system: HCT-116 colon
[12] = test system: HCT-15 colon
[13] = test system: HL-60(TB) leukemia
[14] = test system: HOP-62 NSCLC
[15] = test system: HS 578T breast
[16] = test system: HT29 colon
[17] = test system: IGROV1 ovarian
[18] = test system: K-562 leukemia
[19] = test system: KM12 colon
[20] = test system: LOX IMVI melanoma
[21] = test system: M14 melanoma
[22] = test system: MCF7 breast
[23] = test system: MDA-MB-231 breast
[24] = test system: MDA-MB-435
[25] = test system: MOLT-4 leukemia
[26] = test system: NCI-H226 lung
[27] = test system: NCI-H322M lung
[28] = test system: NCI-H460 lung
[29] = test system: NCI-H522 lung
[30] = test system: NCI/ADR-RES ovarian
[31] = test system: OVCAR-3 ovarian
[32] = test system: OVCAR-4 ovarian
[33] = test system: OVCAR-5 ovarian
[34] = test system: OVCAR-8 ovarian
[35] = test system: PC-3 prostate
[36] = test system: RPMI-8226 leukemia
[37] = test system: RXF 393 renal
[38] = test system: SF-268 CNS
[39] = test system: SF-295 CNS
[40] = test system: SF-539 CNS
[41] = test system: SK-MEL-2 melanoma
[42] = test system: SK-MEL-28 melanoma
[43] = test system: SK-MEL-5 melanoma
[44] = test system: SK-OV-3 ovarian
[45] = test system: SN12C renal
[46] = test system: SNB-19 CNS
[47] = test system: SNB-75 CNS
[48] = test system: SR leukemia
[49] = test system: SW-620 colon
[50] = test system: U251 CNS
[51] = test system: UACC-257 melanoma
[52] = test system: UACC-62 melanoma
[53] = test system: UO-31 renal

Structure (SMILES): COc1c(C)cc(N(CCCl)CCCl)c2ccccc12
- GI50 [1]: 1.96 µM
- TGI [1]: 5.54 µM
- GI50 [2]: 2.2 µM
- TGI [2]: 9.72 µM
- GI50 [3]: 0.823 µM
- TGI [3]: 21.1 µM
- GI50 [4]: 0.77 µM
- TGI [4]: 4.81 µM
- GI50 [5]: 2.93 µM
- TGI [5]: 11.1 µM
- GI50 [6]: 0.394 µM
- TGI [6]: 1.67 µM
- GI50 [7]: 0.513 µM
- TGI [7]: 4.24 µM
- GI50 [8]: 7.02 µM
- TGI [8]: 21.8 µM
- GI50 [9]: 2.33 µM
- TGI [9]: 12.9 µM
- GI50 [10]: 5.4 µM
- TGI [10]: 20.3 µM
- GI50 [11]: 2.96 µM
- TGI [11]: 39.6 µM
- GI50 [12]: 2.42 µM
- TGI [12]: 27.9 µM
- GI50 [13]: 0.75 µM
- TGI [13]: 4.73 µM
- GI50 [14]: 2.8 µM
- TGI [14]: 17.2 µM
- GI50 [15]: 11.8 µM
- TGI [15]: 61.3 µM
- GI50 [16]: 3.26 µM
- TGI [16]: 18.4 µM
- GI50 [17]: 6.47 µM
- TGI [17]: 31.2 µM
- GI50 [18]: 3.16 µM
- TGI [18]: 27.3 µM
- GI50 [19]: 11 µM
- TGI [19]: 36.3 µM
- GI50 [20]: 1.94 µM
- TGI [20]: 12.9 µM
- GI50 [21]: 2.87 µM
- TGI [21]: 14.7 µM
- GI50 [22]: 0.866 µM
- TGI [22]: 15.9 µM
- GI50 [23]: 11.9 µM
- TGI [23]: 40.2 µM
- GI50 [24]: 2.95 µM
- TGI [24]: 14.9 µM
- GI50 [25]: 0.56 µM
- TGI [25]: 3.68 µM
- GI50 [26]: 9.07 µM
- TGI [26]: 24 µM
- GI50 [27]: 8.78 µM
- TGI [27]: 31.4 µM
- GI50 [28]: 0.488 µM
- TGI [28]: 13.2 µM
- GI50 [29]: 1.84 µM
- TGI [29]: 3.63 µM
- GI50 [30]: 2.57 µM
- TGI [30]: 33 µM
- GI50 [31]: 4.66 µM
- TGI [31]: 20.5 µM
- GI50 [32]: 10.1 µM
- TGI [32]: 69.8 µM
- GI50 [33]: 4.19 µM
- TGI [33]: 20.7 µM
- GI50 [34]: 2.06 µM
- TGI [34]: 20.1 µM
- GI50 [35]: 2.23 µM
- TGI [35]: 23.8 µM
- GI50 [36]: 1.67 µM
- TGI [36]: 4.81 µM
- GI50 [37]: 1.7 µM
- TGI [37]: 4.1 µM
- GI50 [38]: 1.23 µM
- TGI [38]: 9.36 µM
- GI50 [39]: 0.527 µM
- TGI [39]: 2.72 µM
- GI50 [40]: 1.46 µM
- TGI [40]: 4.84 µM
- GI50 [41]: 2.19 µM
- TGI [41]: 5.42 µM
- GI50 [42]: 10.3 µM
- TGI [42]: 26.3 µM
- GI50 [43]: 1.8 µM
- TGI [43]: 5.48 µM
- GI50 [44]: 4.3 µM
- TGI [44]: 36.7 µM
- GI50 [45]: 1.31 µM
- TGI [45]: 11.8 µM
- GI50 [46]: 3.57 µM
- TGI [46]: 46.4 µM
- GI50 [47]: 1.8 µM
- TGI [47]: 8.89 µM
- GI50 [48]: 0.319 µM
- TGI [48]: 4.35 µM
- GI50 [49]: 2.05 µM
- TGI [49]: 22.3 µM
- GI50 [50]: 1.36 µM
- TGI [50]: 7.31 µM
- GI50 [51]: 2.25 µM
- TGI [51]: 14 µM
- GI50 [52]: 2.6 µM
- TGI [52]: 13.8 µM
- GI50 [53]: 2.67 µM
- TGI [53]: 8.88 µM
